Patent US20240100134A1

Chains of the proteins cited; added tags and fusions are not shown. A line that says so, or that is headed by a name, gives the form on record, which may keep a tag or linker.
recombinant plasminogen-linker-Fc fusion (human plasminogen, QA linker GQAGQAS, Fc) (human), one chain, as listed by the source limits assumed: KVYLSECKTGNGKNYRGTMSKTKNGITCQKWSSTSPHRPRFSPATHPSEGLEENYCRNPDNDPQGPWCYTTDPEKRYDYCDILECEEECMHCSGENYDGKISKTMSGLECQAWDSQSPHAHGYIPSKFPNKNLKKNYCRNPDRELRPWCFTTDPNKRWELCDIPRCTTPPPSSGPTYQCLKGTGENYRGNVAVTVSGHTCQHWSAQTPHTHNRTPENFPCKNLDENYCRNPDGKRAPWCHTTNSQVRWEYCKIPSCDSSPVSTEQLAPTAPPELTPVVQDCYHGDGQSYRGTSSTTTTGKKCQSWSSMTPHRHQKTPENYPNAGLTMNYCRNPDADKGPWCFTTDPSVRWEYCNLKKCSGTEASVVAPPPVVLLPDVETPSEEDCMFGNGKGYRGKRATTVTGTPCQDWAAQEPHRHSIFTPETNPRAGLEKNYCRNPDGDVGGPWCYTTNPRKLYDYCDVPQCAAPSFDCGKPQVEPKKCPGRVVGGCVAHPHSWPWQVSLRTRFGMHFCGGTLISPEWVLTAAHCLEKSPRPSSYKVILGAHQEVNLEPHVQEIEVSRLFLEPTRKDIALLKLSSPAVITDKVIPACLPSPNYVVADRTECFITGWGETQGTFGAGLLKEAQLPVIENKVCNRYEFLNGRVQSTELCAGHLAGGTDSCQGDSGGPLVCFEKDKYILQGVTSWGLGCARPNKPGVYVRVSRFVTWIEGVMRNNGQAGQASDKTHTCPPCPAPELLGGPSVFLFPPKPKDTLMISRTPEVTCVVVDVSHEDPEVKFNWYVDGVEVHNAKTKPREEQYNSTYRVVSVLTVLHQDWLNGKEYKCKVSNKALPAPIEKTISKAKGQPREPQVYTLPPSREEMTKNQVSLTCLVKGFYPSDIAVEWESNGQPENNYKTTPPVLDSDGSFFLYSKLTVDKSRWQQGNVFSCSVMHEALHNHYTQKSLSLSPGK

Target: recombinant plasminogen-linker-Fc fusion (human plasminogen, QA linker GQAGQAS, Fc) (human)
Test: cell-based or functional assay

- Plg converted to Plm after 120 min (12% SDS-PAGE, Coomassie): 80%
Substance: urokinase-type plasminogen activator (from UniProt P00749 21-431) (enzyme)
